Values quoted from earlier work as cited in PMC3867503, “Structure-Activity Relationships of Benzbromarone Metabolites and Derivatives as EYA Inhibitory Anti-Angiogenic Agents” (PLoS ONE, 2013).

Target: T1, recombinant human EYA3 (Homo sapiens, UniProt Q99504)
T1 construct: a splice variant of Q99504 corresponding to isoform 2 and missing residues 1 - 126; made in house
T1 sequence (Q99504 1-447 isoform Q99504-2): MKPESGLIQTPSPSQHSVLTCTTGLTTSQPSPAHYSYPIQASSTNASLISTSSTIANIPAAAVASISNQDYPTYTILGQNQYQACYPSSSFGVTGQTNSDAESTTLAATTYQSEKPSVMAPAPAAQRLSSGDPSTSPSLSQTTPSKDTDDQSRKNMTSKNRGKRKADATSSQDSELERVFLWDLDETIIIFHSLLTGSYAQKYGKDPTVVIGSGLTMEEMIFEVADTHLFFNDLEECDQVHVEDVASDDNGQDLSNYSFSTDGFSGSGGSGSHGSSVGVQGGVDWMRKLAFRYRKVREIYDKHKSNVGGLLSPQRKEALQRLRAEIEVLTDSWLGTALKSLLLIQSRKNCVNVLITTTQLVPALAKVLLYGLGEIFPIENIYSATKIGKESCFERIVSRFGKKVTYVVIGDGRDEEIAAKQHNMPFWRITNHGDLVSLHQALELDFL
Parameters: method as in PMID 22545090
Conditions: recombinant EYA3, substrate pNPP; reported previously; read-out: IC50 (95% confidence intervals), pNPP hydrolysis by EYA3; cited from earlier work

## CCc1oc2ccccc2c1C(=O)c1cc(Br)c(O)c(Br)c1 [BBR, Benzbromarone]
  IC50: 8.1 µM
